The entries are a selection whose mix differs from that of the whole data set. The source made the active and inactive calls. Rule for the calls: active = max response of -50% or lower; inconclusive = between -30% and -50%; inactive = -30% or higher.
Target: Phosphatidylinositol 5-phosphate 4-kinase type-2 alpha (Homo sapiens) (UniProt P48426)
Test: qHTS for Inhibitors of phosphatidylinositol 5-phosphate 4-kinase (PI5P4K); note: value at the top dose of about 77 µM
Settings: PI5P4Kalpha enzyme, ADP-Glo luminescence, 60 min; active compounds read low
Excerpt: In addition to finding PI5P, we discovered the type II phosphatidylinositol 5-phosphate 4-kinase (PI5P4K) family (alpha, beta, gamma isoforms) that catalyze the conversion of PI5P to PI(4,5)P2. Alternatively, PI(4,5)P2 can also be synthesized through phosphatidylinositol-4-phosphate (PI4P) by the type I phosphatidylinositol 4-phosphate 5-kinases (PI4P5K). These PI5P4K enzymes therefore represent one way by which cells can regulate endogenous PI5P levels and play important roles in insulin signaling and in stress responses.
This proposal aims to identify and optimize specific modulators of human PI5P4K, phosphatidylinositol-5-phosphate 4-kinase (Type II PIPK), a family of kinases that regulate AKT signaling and tumor cell growth. In this project we aim to identify inhibitors of human PI5P4K using a quantitative high-throughput screening approach against the MLSMR containing ~400,000 small molecules.
NIH Chemical Genomics Center [NCGC]
NIH Molecular Libraries Probe Centers Network [MLPCN]
Assay Submitter (PI): Atsuo Sasaki, Beth Israel Deaconess Medical Center
2 microL of PI5P4Kalpha/substrate buffer (columns 1-2, 5-48) are dispensed into Greiner white solid bottom 1536-well assay plates; column 3 receives only PI5P4Kalpha buffer as 0x substrate controls; column 4 receives only substrate buffer as 0x PI5P4Kalpha controls. Final assay buffer consists of 0.038 M HEPES pH 7.4, 0.28 mM EGTA, 0.1% CHAPS, and 5% DMSO (final concentration). Compounds are then transferred via Kalypsys pin tool equipped with 1536-pin array (10 nL slotted pins, V&P Scientific, San Diego, CA). Following addition of compound, 1 microL of ATP (5 microM final concentration, all columns) is added to initiate the reaction. ATP is diluted in an assay buffer consisting of 0.02 M HEPES pH 7.4, 60 mM MgCl2, 15 microM ATP, and 0.1% CHAPS. The plates are then incubated at room temperature for 60 minutes. ADP-Glo reagent 1 is added (2 microL) and plates incubated for 45 minutes, before ADP-Glo reagent 2 (4 microL) is added and plates incubated for 30 minutes. They are then transferred to a ViewLux high-throughput CCD imager (PerkinElmer) wherein single end-point measurements of luminescence are acquired using a clear filter.
% is set by controls: 0 for no effect and ±100 for the full control effect.

Sequences of proteins named here, by UniProt entry; tags and fusion partners are left off.
UniProt P48426, whole entry: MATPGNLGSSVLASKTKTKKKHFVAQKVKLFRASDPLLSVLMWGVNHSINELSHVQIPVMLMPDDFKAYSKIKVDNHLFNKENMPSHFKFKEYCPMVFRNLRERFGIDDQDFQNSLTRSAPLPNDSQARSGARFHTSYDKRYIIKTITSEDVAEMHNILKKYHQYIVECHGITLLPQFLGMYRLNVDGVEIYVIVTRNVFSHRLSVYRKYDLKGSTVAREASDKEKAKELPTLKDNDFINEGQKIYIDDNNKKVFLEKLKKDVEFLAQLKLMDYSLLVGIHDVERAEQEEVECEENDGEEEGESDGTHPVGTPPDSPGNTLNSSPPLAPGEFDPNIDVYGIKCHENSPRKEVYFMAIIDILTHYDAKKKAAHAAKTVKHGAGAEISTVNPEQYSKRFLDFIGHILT

SMILES	max response
COc1ccc(OP(C)(=O)Nc2cccc(Br)c2)cc1 (stereo not given)	inactive: -0.282%
Cc1c(C(c2ccc3c(c2)OCO3)c2c(C)n(C)n(-c3ccccc3)c2=O)c(=O)n(-c2ccccc2)n1C.O=[N+]([O-])c1cc([N+](=O)[O-])c(O)c([N+](=O)[O-])c1	inactive: 8.14%
Cc1cc(-c2cccc3ccccc23)c(C)cn1.O=[N+]([O-])c1cc([N+](=O)[O-])c(O)c([N+](=O)[O-])c1	inactive: -7.12%
O=[N+]([O-])c1ccc(OP2(=O)COCCO2)cc1 (stereo not given)	inactive: 2.92%
CCOP(C)(=S)SCC(=O)NC(C)(CC)C(=O)O (stereo not given)	inactive: 3.36%
CP(=O)(Nc1ccc(SC(F)(F)F)cc1)Oc1ccc(F)cc1 (stereo not given)	inactive: 7.99%
O=[N+]([O-])c1cc([N+](=O)[O-])c(C(F)(F)F)c([N+](=O)[O-])c1O	inactive: -2.93%
Cc1ccccc1NP(C)(=O)Nc1ccccc1C	inactive: -1.95%
CP(=O)(Nc1ccc2c(c1)OCCO2)Oc1ccccc1 (stereo not given)	inactive: -1.26%
CC(C)c1ccc(OP(C)(=O)Nc2ccc(SC(F)(F)F)cc2)cc1 (stereo not given)	inactive: 32.9%
O=C(OCCN1CCN(CCOCc2ccccc2)CC1)C(O)(c1ccccc1)c1ccccc1	inactive: 0.921%
COc1ccc(OP(C)(=O)Nc2ccc(SC(F)(F)F)cc2)cc1 (stereo not given)	inactive: 11%
CCOC(=O)c1ccc(NP(C)(=O)Oc2ccc(F)cc2)cc1 (stereo not given)	inactive: -3.1%
CCCCCOc1ccc(NP(C)(=O)Oc2ccc(Cl)cc2Cl)cc1 (stereo not given)	inactive: 29.7%
CCN(CC)CCCOC(=O)C(O)(c1ccccc1)C1CCCCC1 (stereo not given)	inactive: -0.71%
Cc1c([N+](=O)[O-])cc([N+](=O)[O-])c(Br)c1[N+](=O)[O-]	inactive: -21.3%
COc1ccc(OP(C)(=O)Nc2ccccc2Br)cc1 (stereo not given)	inactive: -4.19%
COc1ccccc1OP(C)(=O)Nc1ccc(C)c(C)c1 (stereo not given)	inactive: -0.0312%
Cc1cc(C)cc(OP(C)(=O)Nc2cccc(C(F)(F)F)c2)c1 (stereo not given)	inactive: 13.1%
CP(=O)(OCCOc1ccccc1)OCCOc1ccccc1	inactive: 1.7%
CCCCCCCCCCCCCCCC1C[N+](C)(C)CCOP(C)(=O)O1 (stereo not given)	inactive: -1.57%
CP(=O)(Nc1ccc(Cl)cc1Cl)Oc1ccccc1 (stereo not given)	inactive: 9.08%
COc1ccccc1OP(C)(=O)Nc1ccc(Br)cc1 (stereo not given)	inactive: 3.94%
CCc1ccc(OP(C)(=O)O)cc1	inactive: 8.04%
CP(=O)(Nc1ccccn1)Oc1ccccc1 (stereo not given)	inactive: -6.71%

SMILES	max response
COc1ccccc1OP(C)(=O)Nc1ccc(C)cc1C (stereo not given)	inactive: -2.95%
O=[N+]([O-])c1cc([N+](=O)[O-])c(Nc2ccccn2)c([N+](=O)[O-])c1	inactive: 0.0984%
Cc1c(NP(C)(=O)Oc2ccc(C(C)C)cc2)c(=O)n(-c2ccccc2)n1C (stereo not given)	inactive: 0.25%
CP(=O)(Oc1ccccc1)N1CCOC1=O (stereo not given)	inactive: -2.08%
CCc1ccc(OP(C)(=O)Nc2cccnc2)cc1 (stereo not given)	inactive: 2.36%
COc1ccccc1OP(C)(=O)Nc1c(C)n(C)n(-c2ccccc2)c1=O (stereo not given)	inactive: -4.78%
O=C(OCCCN1CCCC1)C(O)(c1ccccc1)C1CCCCC1 (stereo not given)	inactive: 1.01%
CCN(CC)CC(O)COC(=O)C(O)(c1ccccc1)C1CCCCC1 (stereo not given)	inactive: 1.69%
COc1ccc(OP(C)(=O)Nc2ccc(Br)cc2)cc1 (stereo not given)	inactive: 7.03%
CN(C)C(=O)c1c([N+](=O)[O-])cc([N+](=O)[O-])cc1[N+](=O)[O-]	inactive: -15.8%
COc1ccccc1OP(C)(=O)Nc1ccccc1Br (stereo not given)	inactive: 2.48%
CCOC(=O)c1ccc(NP(C)(=O)Oc2ccc(Cl)cc2)cc1 (stereo not given)	inactive: -0.26%
Nc1ccc2c(ccc3cccnc32)n1.O=[N+]([O-])c1cc([N+](=O)[O-])c(O)c([N+](=O)[O-])c1	inactive: -26%
COc1ccccc1OP(C)(=O)Nc1ccccc1 (stereo not given)	inactive: -0.82%
CP(=O)(Nc1ccccc1Br)Oc1ccccc1 (stereo not given)	inactive: 0.0356%
CP(=S)(Nn1cnnc1)Oc1ccccc1 (stereo not given)	inactive: 5%
CCc1ccc(OP(C)(=O)N2CCN(c3ccc([N+](=O)[O-])cc3)CC2)cc1 (stereo not given)	inactive: 0.809%
Cc1cc(C)cc(OP(C)(=O)Nc2ccc(SC(F)(F)F)cc2)c1 (stereo not given)	inactive: 18.7%
Cc1cccc(C)c1OP(C)(=O)Nc1ccc(SC(F)(F)F)cc1 (stereo not given)	inactive: 18.4%
CP(=O)(Nc1ccc(SC(F)(F)F)cc1)Oc1ccc(Cl)cc1 (stereo not given)	inactive: 13.3%
CP(=O)(Oc1ccccc1)OC(c1ccccc1)C(F)(F)F (stereo not given)	inactive: 1.21%
CCOP(C)(=S)SCC(=O)NC(C)C(=O)O (stereo not given)	inactive: -4.79%
CCOC(=O)c1ccc(NP(C)(=O)Oc2ccc(OC)cc2)cc1 (stereo not given)	inactive: -6.43%
O=[N+]([O-])c1cc([N+](=O)[O-])c(O)c([N+](=O)[O-])c1.c1ccc(Oc2ccncc2)cc1	inactive: -23%
CCN(CC)CCCOC(=O)C(O)(c1ccccc1)c1ccccc1	inactive: 2.57%

SMILES	max response
COc1ccccc1-c1ccccn1.O=[N+]([O-])c1cc([N+](=O)[O-])c(O)c([N+](=O)[O-])c1	inactive: -12.8%
CC(C)(C)c1ccc(OP(C)(=O)Nc2ccc(SC(F)(F)F)cc2)cc1 (stereo not given)	inactive: 18.4%
Cc1cccc(C)c1OP(C)(N)=O (stereo not given)	inactive: 5.2%
O=[N+]([O-])c1ccc2c(c1)C=Nc1ccccc1O2	inactive: 2.47%
O=[N+]([O-])c1cc([N+](=O)[O-])c(Nc2cccnc2)c([N+](=O)[O-])c1	inactive: -20.1%
COc1ccccc1OP(C)(=O)Nc1cc(Cl)ccc1C (stereo not given)	inactive: 1.75%
COc1ccc(OP(C)(=O)Nc2cccc(F)c2)cc1 (stereo not given)	inactive: 3.47%
Cc1cc(C)cc(OP(C)(N)=O)c1 (stereo not given)	inactive: 5.85%
CCOC(=O)c1ccc(NP(C)(=O)Oc2ccccc2)cc1 (stereo not given)	inactive: -4.66%
COc1ccccc1OP(C)(=O)Nc1ccc(C)cc1 (stereo not given)	inactive: 7.92%
Cc1ccc(NP(C)(=O)Oc2ccccc2)c(C)c1 (stereo not given)	inactive: 1.97%
CC1=NCCc2c1[nH]c1ccccc21.O=[N+]([O-])c1cc([N+](=O)[O-])c(O)c([N+](=O)[O-])c1	inactive: -13.5%
CCOC(=O)c1ccc(NP(C)(=O)Oc2cc(C)cc(C)c2)cc1 (stereo not given)	inactive: 5.74%
COc1ccccc1OP(C)(=O)Nc1cccc(Br)c1 (stereo not given)	inactive: -1.61%
CP(=O)(Nc1cccc(Br)c1)Oc1ccccc1 (stereo not given)	inactive: 3.78%
Cc1ccc(C)c(NP(C)(=O)Oc2ccccc2)c1 (stereo not given)	inactive: 8.76%
CN(Cc1cccnc1)C(=O)COc1ccc(Cl)c(Cl)c1.O=[N+]([O-])c1cc([N+](=O)[O-])c(O)c([N+](=O)[O-])c1	inactive: -20.4%
O=[N+]([O-])c1cc([N+](=O)[O-])c(-c2cnn(-c3ccccc3)c2)c([N+](=O)[O-])c1	inactive: -1.73%
O=[N+]([O-])c1cc([N+](=O)[O-])c(Nc2nnnn2CCO)c([N+](=O)[O-])c1	inactive: -24.8%
CC1=C2N=C(C=C3N=C(C(C)=C4[N-][C@@](C)([C@@H]5N=C1[C@](C)(CCC(=O)NC[C@@H](C)OP(=O)([O-])O[C@H]1[C@@H](O)[C@@H](n6cnc7cc(C)c(C)cc76)O[C@@H]1CO)[C@H]5CC(N)=O)[C@@](C)(CC(N)=O)[C@@H]4CCC(N)=O)[C@@](C)(CC(N)=O)[C@@H]3CCC(N)=O)C(C)(C)[C@@H]2CCC(N)=O.[C-]#N.[Co+3]	inactive: -23%
CP(=O)(Nc1ccc(SC(F)(F)F)cc1)Oc1ccccc1 (stereo not given)	inactive: 1.81%
CCCOc1ccc(NP(C)(=O)Oc2ccc(Cl)cc2)cc1 (stereo not given)	inactive: 9.43%
COc1ccc(-c2ccccn2)cc1.O=[N+]([O-])c1cc([N+](=O)[O-])c(O)c([N+](=O)[O-])c1	inactive: -18.1%
COc1ccccc1OP(C)(=O)Nc1c(C)cccc1C (stereo not given)	inactive: 4.29%
CN1CCCCC1COC(=O)C1(O)c2ccccc2CCc2ccccc21 (stereo not given)	inactive: 2.91%

— PubChem BioAssay AID652105 (National Center for Advancing Translational Sciences (NCATS), 2013)
